Experimental data reported in US20040072770A1, “Methods for specifically inhibiting histone deacetylase-7 and 8” (priority 2002, published 2004).

Amino acid sequences for entries named in this document (tags omitted).
UniProt Q13547, whole entry: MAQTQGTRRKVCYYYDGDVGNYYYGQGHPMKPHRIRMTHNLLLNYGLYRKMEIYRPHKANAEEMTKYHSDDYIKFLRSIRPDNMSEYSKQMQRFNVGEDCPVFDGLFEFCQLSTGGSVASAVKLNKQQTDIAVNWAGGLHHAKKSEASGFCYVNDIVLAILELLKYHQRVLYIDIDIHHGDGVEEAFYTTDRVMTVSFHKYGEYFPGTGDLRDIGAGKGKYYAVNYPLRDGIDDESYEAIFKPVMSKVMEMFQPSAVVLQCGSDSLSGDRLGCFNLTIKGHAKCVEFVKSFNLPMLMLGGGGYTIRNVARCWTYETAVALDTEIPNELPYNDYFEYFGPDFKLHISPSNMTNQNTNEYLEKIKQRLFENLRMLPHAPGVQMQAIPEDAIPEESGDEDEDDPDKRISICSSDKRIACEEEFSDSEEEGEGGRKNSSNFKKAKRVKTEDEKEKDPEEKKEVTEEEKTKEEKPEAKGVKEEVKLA
UniProt Q9UBN7, whole entry: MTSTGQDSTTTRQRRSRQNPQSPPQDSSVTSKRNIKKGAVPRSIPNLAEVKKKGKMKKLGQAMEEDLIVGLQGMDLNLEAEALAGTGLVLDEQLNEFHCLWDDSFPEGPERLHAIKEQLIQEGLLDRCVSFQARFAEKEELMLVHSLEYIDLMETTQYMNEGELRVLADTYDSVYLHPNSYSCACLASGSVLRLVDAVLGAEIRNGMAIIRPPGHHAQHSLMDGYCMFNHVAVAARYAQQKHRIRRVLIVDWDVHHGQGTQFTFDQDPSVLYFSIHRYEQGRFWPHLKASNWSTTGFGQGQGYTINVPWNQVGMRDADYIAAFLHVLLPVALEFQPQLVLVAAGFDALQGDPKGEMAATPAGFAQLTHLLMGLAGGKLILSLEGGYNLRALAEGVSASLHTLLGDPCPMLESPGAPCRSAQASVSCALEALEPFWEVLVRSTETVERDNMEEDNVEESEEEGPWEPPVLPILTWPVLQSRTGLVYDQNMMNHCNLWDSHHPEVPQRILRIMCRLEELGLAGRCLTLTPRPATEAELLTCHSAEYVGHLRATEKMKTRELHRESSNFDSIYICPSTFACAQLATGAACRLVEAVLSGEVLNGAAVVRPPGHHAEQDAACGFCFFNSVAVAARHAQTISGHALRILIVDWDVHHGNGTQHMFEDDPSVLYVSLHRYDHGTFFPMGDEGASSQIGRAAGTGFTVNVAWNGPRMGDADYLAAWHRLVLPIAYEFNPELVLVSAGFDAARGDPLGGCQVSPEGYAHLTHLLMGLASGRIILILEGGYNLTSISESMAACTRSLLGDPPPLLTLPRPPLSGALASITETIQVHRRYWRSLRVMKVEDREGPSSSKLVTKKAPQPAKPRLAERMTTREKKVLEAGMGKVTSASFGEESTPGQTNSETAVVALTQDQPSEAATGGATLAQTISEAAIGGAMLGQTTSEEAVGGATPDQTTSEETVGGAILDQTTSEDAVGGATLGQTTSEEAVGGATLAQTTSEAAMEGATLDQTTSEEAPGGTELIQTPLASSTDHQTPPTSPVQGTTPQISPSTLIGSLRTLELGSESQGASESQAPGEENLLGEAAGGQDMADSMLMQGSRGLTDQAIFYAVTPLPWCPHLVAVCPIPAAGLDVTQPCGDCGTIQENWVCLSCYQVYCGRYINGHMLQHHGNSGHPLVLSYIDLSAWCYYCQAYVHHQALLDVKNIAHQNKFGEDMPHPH
UniProt Q9BY41, whole entry: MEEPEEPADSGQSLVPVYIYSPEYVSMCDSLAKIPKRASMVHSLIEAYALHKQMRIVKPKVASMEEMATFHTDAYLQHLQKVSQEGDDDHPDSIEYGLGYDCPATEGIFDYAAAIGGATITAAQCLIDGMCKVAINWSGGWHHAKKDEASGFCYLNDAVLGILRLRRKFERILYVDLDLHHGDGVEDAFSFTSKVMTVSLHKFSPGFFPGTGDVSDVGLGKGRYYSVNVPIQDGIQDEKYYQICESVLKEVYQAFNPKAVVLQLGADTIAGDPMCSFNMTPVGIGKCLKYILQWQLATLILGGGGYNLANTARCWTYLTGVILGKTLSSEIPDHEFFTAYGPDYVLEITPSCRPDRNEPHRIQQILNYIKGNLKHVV
UniProt P56524, whole entry: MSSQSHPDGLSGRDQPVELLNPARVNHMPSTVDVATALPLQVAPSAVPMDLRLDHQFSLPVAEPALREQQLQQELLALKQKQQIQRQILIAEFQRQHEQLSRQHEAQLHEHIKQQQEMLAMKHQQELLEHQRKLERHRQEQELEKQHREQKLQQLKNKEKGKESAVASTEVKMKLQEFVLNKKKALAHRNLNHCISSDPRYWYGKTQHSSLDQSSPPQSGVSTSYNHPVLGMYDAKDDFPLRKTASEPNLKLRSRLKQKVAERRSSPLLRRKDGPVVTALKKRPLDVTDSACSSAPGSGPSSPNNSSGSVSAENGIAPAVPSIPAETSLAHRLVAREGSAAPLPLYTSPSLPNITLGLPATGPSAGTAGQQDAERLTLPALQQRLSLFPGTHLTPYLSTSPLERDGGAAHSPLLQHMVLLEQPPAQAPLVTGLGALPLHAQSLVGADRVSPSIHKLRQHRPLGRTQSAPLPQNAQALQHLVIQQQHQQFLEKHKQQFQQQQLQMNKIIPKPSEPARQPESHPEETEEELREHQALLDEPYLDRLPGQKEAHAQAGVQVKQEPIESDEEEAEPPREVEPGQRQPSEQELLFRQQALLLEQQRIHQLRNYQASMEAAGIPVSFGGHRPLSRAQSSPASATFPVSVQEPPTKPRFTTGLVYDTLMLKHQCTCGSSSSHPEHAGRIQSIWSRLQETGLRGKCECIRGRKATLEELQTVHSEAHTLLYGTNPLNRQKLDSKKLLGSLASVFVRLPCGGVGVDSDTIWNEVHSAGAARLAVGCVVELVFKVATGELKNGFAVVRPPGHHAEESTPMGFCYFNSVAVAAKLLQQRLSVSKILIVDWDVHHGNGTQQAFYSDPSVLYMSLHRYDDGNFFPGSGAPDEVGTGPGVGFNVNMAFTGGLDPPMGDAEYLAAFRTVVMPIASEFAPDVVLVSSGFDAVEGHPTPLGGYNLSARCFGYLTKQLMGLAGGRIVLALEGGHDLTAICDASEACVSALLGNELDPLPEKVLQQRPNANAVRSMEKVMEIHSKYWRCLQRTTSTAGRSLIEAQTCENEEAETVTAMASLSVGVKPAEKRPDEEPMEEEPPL

Columns and labels:
lung cancer cells A549 = assay: MTT assay, A549; conditions: read-out: IC50 A 549 (MTT); 72 hours
Description: (§1) Effects of HDAC isotype-specific small molecule inhibitors on growth inhibition of various human cancer cells (from ATCC) in vitro were determined by MTT assays. Briefly, cells seeded in 96-well plates were incubated for 72 hours at 37° C. in a 5% CO2 incubator. MTT (Sigma) was added at a final concentration of 0.5 mg/ml and incubated with the cells for 4 hours before an equal volume of solubilization buffer (50% N,N-dimethylformamide, 20% SDS, pH 4.7) was added onto cultured cells. After overnight incubation, solubilized dye was quantified by colorimetric reading at […] using a reference at 630 nM. OD values were converted to cell numbers according to a standard growth curve of the relevant cell line. The concentration which reduces cell numbers to 50% of those of DMSO-treated cells is determined as MTT IC50. In Table 4, IC50s of several HDAC7 or HDAC8 inhibitors in MTT assays in various human cancer cell lines were listed. They include colon cancer cells HCT116 and SW48, lung cancer cells A549 and H446, breast cancer cells MCF-7 and MDAmb231, a prostate cancer cell line Du145 and a bladder cancer cell line T24.

HDAC-1 = HDAC-1 (Homo sapiens, UniProt Q13547); assay: Enzyme inhibitory activity, HD1; format: biochemical; conditions: read-out: IC50 HD 1
HDAC-6 = HDAC-6 (Homo sapiens, UniProt Q9UBN7); assay: Enzyme inhibitory activity, HD6; format: biochemical; conditions: read-out: IC50 HD 6
[1] = tested on: breast cancer cells MCF-7; assay: MTT assay, MCF-7; conditions: read-out: MTT IC50 MCF 7; 72 hours
Description: as §1

colon cancer cells SW48 = assay: MTT assay, SW48; conditions: read-out: MTT IC50 SW 48; 72 hours
Description: as §1

HDAC-8 = HDAC-8 (Homo sapiens, UniProt Q9BY41); assay: Enzyme inhibitory activity, HD8; format: biochemical; conditions: read-out: IC50 HD 8
[2] = tested on: prostate cancer cell line Du145; assay: MTT assay, Du145; conditions: read-out: IC50 Du 145 (MTT); 72 hours
Description: as §1

HDAC-4 = HDAC-4 (Homo sapiens, UniProt P56524); assay: Enzyme inhibitory activity, HD4; format: biochemical; conditions: read-out: IC50 HD4
[3] = tested on: bladder cancer cell line T24; assay: MTT assay, T24; conditions: read-out: MTT IC50 T 24; 72 hours
Description: as §1

[4] = tested on: colon cancer cells HCT116; assay: MTT assay, HCT116; conditions: read-out: IC50 HCT 116 (MTT); 72 hours
Description: as §1

With `Nc1nc(NCc2ccc(C(=O)Nc3ccccc3N)cc2)nc(NC2Cc3ccccc3C2)n1` the IC50 (lung cancer cells A549) was 3 µM, the IC50 (HDAC-1) was 0.4 µM and the IC50 (HDAC-6) was > 50 µM. For the same molecule, the IC50 [1] was 3 µM, the IC50 (colon cancer cells SW48) was 3 µM and the IC50 (HDAC-8) was 35 µM. For the same molecule, the IC50 [2] was 0.9 µM, the IC50 (HDAC-4) was > 50 µM and the IC50 [3] was 2 µM. For the same molecule, the IC50 [4] was 0.5 µM.
